Molecules are shown by their SMILES. This is a selection; strong and weak results do not stand in their true shares. Calls of active or inactive are those of the source.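 Rule for the calls: active = inhibition above its plate's cutoff, the mean of tested wells on that plate plus 3 SD (cut at about 29% in these data); inactive = the rest.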

The chains behind the UniProt entries cited, without tags or fusion partners.
UniProt P32245, whole entry: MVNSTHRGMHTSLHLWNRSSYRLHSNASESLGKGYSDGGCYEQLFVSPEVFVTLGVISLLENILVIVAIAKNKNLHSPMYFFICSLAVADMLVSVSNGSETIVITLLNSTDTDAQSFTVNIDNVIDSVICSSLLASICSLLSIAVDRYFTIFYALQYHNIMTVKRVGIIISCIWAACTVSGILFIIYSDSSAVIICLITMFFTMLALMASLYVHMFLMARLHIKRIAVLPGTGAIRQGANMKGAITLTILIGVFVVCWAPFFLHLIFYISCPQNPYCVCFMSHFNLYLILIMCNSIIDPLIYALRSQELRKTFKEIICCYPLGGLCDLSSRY

The target of the experiment is Melanocortin receptor 4 (Homo sapiens) (UniProt P32245). Kind of experiment: MC4R antagonists of cAMP signaling, primary screen, cell-based, TR-FRET, antagonist arm of biased-ligand search (AID 540295).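 Note: 0% = Melanotan II alone and 100% = Melanotan II plus saturating MCL0020.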 Particulars: MC4R-expressing cells, MTII-stimulated cAMP, LANCE TR-FRET; at 6.5 µM; hits give high values. (Time-resolved FRET reads energy transfer from a long-lived donor to a nearby acceptor.)
`N#Cc1ccc(C(=O)NCC2(N3CCCCC3)CCCCC2)cc1`: the inhibition is inactive: 7.64%.

In the case of `O=C(NCC1(N2CCCCC2)CCCCC1)c1cccc(C(F)(F)F)c1`, the inhibition was inactive: 5.5%.

For `COc1ccc(NC2CCN(C(=O)OC(C)(C)C)CC2)cc1`, the inhibition is inactive: 3.89%.

Regarding `CC(C)c1ccc(C(=O)NCC2(N3CCOCC3)CCCCC2)cc1`, the inhibition is inactive: 5.08%.

For `CN1CCN(CCOC(=O)C(O)(c2ccccc2)c2ccccc2)CC1`, the inhibition is inactive: -4.23%.

Take `O=C(NCC1(N2CCOCC2)CCCCC1)c1cc(=O)[nH]c2ccccc12`: the inhibition is inactive: 5.57%.

Regarding `COc1cc(C(=O)NCC2(N3CCCCC3)CCCCC2)ccc1OC(F)F`, the inhibition is inactive: 6.36%.

On to `O=C(NCC1(N2CCCCC2)CCCCC1)c1ccc(OC(F)F)cc1`, for which the inhibition is inactive: 6.72%.

As to `O=C(NCC1(N2CCCCC2)CCCCC1)c1cccc([N+](=O)[O-])c1`, the inhibition is inactive: 6.33%.

Consider `CSc1ccc(C(=O)NCC2(N3CCOCC3)CCCCC2)cc1`, for which the inhibition was inactive: 2.15%.

Regarding `N#CC1(Nc2ccccc2)CCN(CCc2ccccc2)CC1`, the inhibition is inactive: 11.1%.

Regarding `CCN1CCC(Nc2ccc(Cl)cc2)CC1`, the inhibition was inactive: 4.76%.

On to `CN1CCC(Nc2cccc(F)c2)CC1`, for which the inhibition is inactive: 9.73%.

On to `O=C(NCC1(N2CCCCC2)CCCCC1)c1cncc(Br)c1`, for which the inhibition is inactive: -1.73%.

For the compound `CCCOc1ccc(C(=O)NCC2(N(C)C)CCCCC2)cc1OC`, the inhibition is inactive: 8.18%.

For `Cc1ccc(C(=O)NCC2(N(C)C)CCCCC2)o1`, the inhibition was inactive: 2.45%.

As for `CN(C)c1cccc(C(=O)NCC2(N3CCCCC3)CCCCC2)c1`, the inhibition was inactive: 8%.

As to `COc1ccc(CN(CCCl)CCCl)cc1Cl`, the inhibition is inactive: -5.37%.

Turning to `CC(C)c1ccc(NC2CCN(C(=O)OC(C)(C)C)CC2)cc1`, the inhibition is inactive: 23.1%.

As to `O=C(NCC1(N2CCOCC2)CCCCC1)c1cc(F)c(F)cc1Cl`, the inhibition is inactive: 0.8%.

As to `COc1cc(OC)c(C(=O)NCC2(N(C)C)CCCCC2)cc1OC`, the inhibition is inactive: -1.37%.

As for `O=C(NCC1(N2CCOCC2)CCCCC1)c1cc2ccccc2o1`, the inhibition was inactive: 11.6%.

In the case of `Cc1cc(C)cc(N(C(=O)c2ccccc2)C2CCN(C(=O)OC(C)(C)C)CC2)c1`, the inhibition was inactive: 6.38%.

`O=C(NCC1(N2CCCCC2)CCCCC1)c1ccc(Cl)nc1`: the inhibition is inactive: 13.5%.

Take `CCOC(=O)N1CCC(Nc2ccc(OC)cc2)CC1`: the inhibition was inactive: 9.11%.

`COc1ccc(Cl)cc1C(=O)NCC1(N2CCOCC2)CCCCC1`: the inhibition was inactive: 5.69%.

As to `O=C(NCC1(N2CCCCC2)CCCCC1)c1ccc(Cl)s1`, the inhibition is inactive: -0.42%.

For the compound `N#CC1(Nc2ccccc2)CCN(Cc2ccccc2)CC1`, the inhibition was inactive: 5.5%.

Turning to `O=C(OC1CN2CCC1CC2)C1c2ccccc2Oc2ccccc21` (stereo not given), the inhibition was inactive: 7.44%.

On to `O=C(NCC1(N2CCCCC2)CCCCC1)c1cccs1`, for which the inhibition is inactive: -2.21%.

As to `O=C(NCC1(N2CCCCC2)CCCCC1)c1ccc(=O)[nH]c1`, the inhibition is inactive: 11.7%.

`COc1ccc(C(=O)NCC2(N3CCCCC3)CCCCC2)c(OC)c1OC`: the inhibition is inactive: -1.3%.

As to `CC(C)(C)OC(=O)N1CCC(N(C(=O)c2ccccc2)c2ccc(F)cc2)CC1`, the inhibition is inactive: -6.29%.

Turning to `COc1ccc(C(=O)NCC2(N3CCCCC3)CCCCC2)cc1`, the inhibition was inactive: 3.01%.

In the case of `Cc1cccc(NC2(C#N)CCN(Cc3ccccc3)CC2)c1`, the inhibition was inactive: 9.81%.

Turning to `CSc1ccccc1C(=O)NCC1(N2CCCCC2)CCCCC1`, the inhibition was inactive: 4.94%.

With `CCOC(=O)N1CCC(Nc2cccc(C)c2)CC1`, the inhibition is inactive: 6.36%.

As to `COc1cc(C(=O)NCC2(N(C)C)CCCCC2)ccc1OC(F)F`, the inhibition was inactive: 4.45%.

Take `CCOc1ccc(C)cc1CN(CCCl)CCCl`: the inhibition was inactive: 17.4%.

Regarding `O=C1CCN(Cc2ccccc2)CC1`, the inhibition was inactive: 15.1%.

On to `CCOC(=O)N1CCC(Nc2ccc(F)cc2)CC1`, for which the inhibition was inactive: -1.2%.

Turning to `COc1ccc(NC2CCN(CCc3ccccc3)CC2)c(OC)c1`, the inhibition was inactive: 13.6%.

Take `CCCCOc1ccc(C(=O)NCC2(N3CCOCC3)CCCCC2)cc1`: the inhibition is inactive: 4.99%.

With `O=P1(N(CCCl)CCCl)SCCCS1`, the inhibition was inactive: 2.79%.

Consider `O=C(NCC1(N2CCCCC2)CCCCC1)c1ccc(F)cc1`, for which the inhibition is inactive: -4.67%.

What is called inhibition is the drop in the measured response relative to a control, in per cent.

The values are drawn from PubChem BioAssay AID540295 (The Scripps Research Institute Molecular Screening Center, 2011).
